The values below are quoted from earlier work in doi:10.1101/2021.11.01.466777v1 (bioRxiv, 2021).

The conditions of the data set: human volunteers; no reference given; cited from earlier work.

Turning to daptomycin, the half-life was about 8 h.

In general, half-life refers to the time needed for the level to fall by half in the phase considered.
